Reference: BindingDB's records for patent US20250115578 (Chengdu Kanghong Pharmaceutical, 2025)

Protein sequences, listed by entry. Tags and fused reporters are not part of them.
UniProt Q9Y5Y9, whole entry: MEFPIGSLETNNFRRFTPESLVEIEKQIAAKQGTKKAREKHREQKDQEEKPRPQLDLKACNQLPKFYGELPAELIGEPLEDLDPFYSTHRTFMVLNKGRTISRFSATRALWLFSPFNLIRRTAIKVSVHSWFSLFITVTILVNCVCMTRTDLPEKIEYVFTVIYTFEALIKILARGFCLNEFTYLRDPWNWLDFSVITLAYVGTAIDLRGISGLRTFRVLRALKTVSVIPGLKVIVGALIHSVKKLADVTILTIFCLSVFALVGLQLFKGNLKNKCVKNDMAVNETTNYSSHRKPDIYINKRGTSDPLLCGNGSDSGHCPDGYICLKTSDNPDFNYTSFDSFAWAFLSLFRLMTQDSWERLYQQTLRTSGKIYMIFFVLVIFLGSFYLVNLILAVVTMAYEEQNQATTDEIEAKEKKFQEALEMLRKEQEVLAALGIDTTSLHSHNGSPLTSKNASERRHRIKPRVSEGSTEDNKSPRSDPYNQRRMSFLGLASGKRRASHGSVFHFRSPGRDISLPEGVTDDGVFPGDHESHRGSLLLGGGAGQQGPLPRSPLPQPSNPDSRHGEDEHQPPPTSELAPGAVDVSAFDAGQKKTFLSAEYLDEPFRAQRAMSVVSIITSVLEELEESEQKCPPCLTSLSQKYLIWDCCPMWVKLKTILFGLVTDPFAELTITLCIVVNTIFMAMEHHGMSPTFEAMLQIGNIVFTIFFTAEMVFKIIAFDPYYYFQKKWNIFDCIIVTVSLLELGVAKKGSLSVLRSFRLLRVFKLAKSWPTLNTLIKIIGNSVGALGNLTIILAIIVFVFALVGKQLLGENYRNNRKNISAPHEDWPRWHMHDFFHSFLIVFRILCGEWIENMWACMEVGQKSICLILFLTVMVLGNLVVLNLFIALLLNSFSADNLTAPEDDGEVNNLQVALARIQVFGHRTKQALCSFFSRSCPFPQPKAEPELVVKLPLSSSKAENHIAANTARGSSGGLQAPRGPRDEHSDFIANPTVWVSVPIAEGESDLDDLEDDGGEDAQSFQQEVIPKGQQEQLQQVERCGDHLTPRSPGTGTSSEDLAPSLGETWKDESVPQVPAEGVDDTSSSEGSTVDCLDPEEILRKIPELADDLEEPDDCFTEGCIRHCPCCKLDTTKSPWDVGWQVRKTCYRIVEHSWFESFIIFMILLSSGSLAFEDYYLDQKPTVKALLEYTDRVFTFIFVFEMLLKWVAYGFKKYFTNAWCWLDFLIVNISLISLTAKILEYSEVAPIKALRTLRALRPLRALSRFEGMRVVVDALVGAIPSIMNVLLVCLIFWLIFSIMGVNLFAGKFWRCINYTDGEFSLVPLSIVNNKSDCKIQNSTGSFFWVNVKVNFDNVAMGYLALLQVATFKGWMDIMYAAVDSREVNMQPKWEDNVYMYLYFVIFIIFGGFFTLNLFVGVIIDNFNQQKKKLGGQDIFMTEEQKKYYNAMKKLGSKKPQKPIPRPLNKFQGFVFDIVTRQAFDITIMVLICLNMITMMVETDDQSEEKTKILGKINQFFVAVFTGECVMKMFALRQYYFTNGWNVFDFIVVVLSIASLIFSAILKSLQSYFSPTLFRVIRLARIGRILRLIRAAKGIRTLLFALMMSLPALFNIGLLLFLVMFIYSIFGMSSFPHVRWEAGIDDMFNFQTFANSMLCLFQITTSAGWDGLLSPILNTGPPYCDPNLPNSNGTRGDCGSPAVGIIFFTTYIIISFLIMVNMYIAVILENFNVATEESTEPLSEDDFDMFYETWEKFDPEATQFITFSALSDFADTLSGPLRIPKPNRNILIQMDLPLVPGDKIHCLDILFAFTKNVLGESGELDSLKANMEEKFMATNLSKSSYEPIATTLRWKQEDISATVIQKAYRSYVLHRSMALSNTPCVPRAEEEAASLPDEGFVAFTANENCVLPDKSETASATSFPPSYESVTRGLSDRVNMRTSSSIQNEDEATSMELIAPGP

Legend:
[1] = target: T1, Sodium channel protein type 10 subunit alpha (Homo sapiens, UniProt Q9Y5Y9); experiment: Electrophysiological Assay
Description: A capillary glass pipette (BF150-86-10, Sutter Instruments) was pulled into a recording electrode with a micropipette puller (P97, Sutter Instruments). The micromanipulator (MP285, Sutter Instruments) was manipulated under an inverted microscope (IX71, Olympus) to make the recording electrode contact the cell and negative pressure suction was applied to achieve a GQ seal. Then, rapid capacitance compensation was performed, and negative pressure was continued, cell membrane was broken by suction, and whole cell recording mode was formed. Then the slow capacitance was compensated and the membrane capacitance and series resistance were recorded without leakage compensation. When the whole cell recording current was stabilized, dosing was initiated, and the next concentration was detected after acting 5 minutes of each drug concentration. Multiple cells were independently repeated during the recording period. […] Specifically, 6 concentrations (measuring IC50) or 2 concentrations (preliminary screening) were set for each compound, and the percentage of inhibition of sodium channels was determined by calculating the relative percentage of peak current generated before and after each concentration compound treated cells, and the IC50 value or percentage of inhibition at a specific concentration was calculated using IGOR pro software.

[2] = target: T1, Sodium channel protein type 10 subunit alpha; experiment: Electrophysiological Assay; remark: listed apart in the source
Description: Clamped the cell at −80 mV and then depolarized to 10 mV with a square wave lasting 10 ms to get the Nav1.8 current (see FIG. 1 attached). This procedure was repeated every 5 seconds. The maximum current triggered by the square wave was detected, and when it stabilized, the test compounds were perfused, and when the reaction stabilized, the strength of the block was calculated.

For Cc1cc(F)ccc1Oc1cc(C(F)(F)F)ccc1C(=O)Nc1cc[nH]c(=O)c1 [US20250115578, Example 32], the IC50 [1] was 16 nM and the IC50 [2] was 35.1 nM.
